# Assay results taken from patent US20200121812A1 (Teva Pharmaceuticals International GmbH, priority 2015, published 2020).
# System: dopamine in the striatum
# Assay: Microdialysis in Sprague-Dawley rats
# Assay type: in vivo
# Details: 50 mg/kg ip, compared to conventional L-DOPA, FIG. 1
structure (smiles),measurement,value
[2H]C([2H])(c1ccc(O)c(O)c1)[C@]([2H])(N)C(=O)O [d3-L-DOPA],half life of deu-dopamine in the striatum/brain,prolonged
